According to ChEMBL document CHEMBL4387703, “Lead optimization and biological evaluation of fragment-based cN-II inhibitors” (Eur J Med Chem, 2019):

What was measured:
Conditions in all cases: Homo sapiens
[1] = compound: O=C(Nc1ncnc2[nH]cnc12)c1cccc(-c2ccccc2)c1; test: (§1) Noncompetitive inhibition of recombinant cN-II (unknown origin) assessed as substrate Km using varying level of IMP as substrate by HPLC method based Lineweaver-Burk plot analysis
Method in brief: (§2)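 Enzyme, alone or with compound, was mixed with IMP (0.2 to 3 mM) under stirring at 37 °C in imidazole pH 6.5/NaCl/MgCl2 buffer. Samples were taken every 7 s and quenched with 10% perchloric acid. IMP and inosine were quantified by SAX HPLC in 10 mM ammonium phosphate pH 5.5. Data were fitted to competitive, non-competitive, uncompetitive or mixed inhibition equations.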

[2] = compound: CCOP(=O)(O)Cn1cnc(-c2cccc(-c3cccc(C(=O)Nc4ncnc5nc[nH]c45)c3)c2)c1; test: as §1; method in brief: as §2
[3] = compound: O=C(O)Cn1cnc2c(NC(=O)c3cccc(-c4ccccc4)c3)ncnc21; test: as §1; method in brief: as §2
[4] = compound: O=C(Nc1ncnc2[nH]cnc12)c1cccc(-c2ccccc2)c1; test: (§3) Mixed type inhibition of recombinant cN-II (unknown origin) assessed as substrate Kcat using varying level of IMP as substrate by HPLC method based Lineweaver-Burk plot analysis; method in brief: as §2
[5] = compound: CCOP(=O)(O)Cn1cnc(-c2cccc(-c3cccc(C(=O)Nc4ncnc5nc[nH]c45)c3)c2)c1; test: as §3; method in brief: as §2
[6] = compound: O=C(O)Cn1cnc2c(NC(=O)c3cccc(-c4ccccc4)c3)ncnc21; test: as §3; method in brief: as §2
[7] = compound: O=C(Nc1ncnc2[nH]cnc12)c1cccc(-c2ccccc2)c1; test: (§4) Uncompetitive inhibition of recombinant cN-II (unknown origin) assessed as substrate Km using varying level of IMP as substrate by HPLC method based Lineweaver-Burk plot analysis; method in brief: as §2
[8] = compound: CCOP(=O)(O)Cn1cnc(-c2cccc(-c3cccc(C(=O)Nc4ncnc5nc[nH]c45)c3)c2)c1; test: as §4; method in brief: as §2
[9] = compound: O=C(O)Cn1cnc2c(NC(=O)c3cccc(-c4ccccc4)c3)ncnc21; test: as §4; method in brief: as §2
[10] = compound: O=C(Nc1ncnc2[nH]cnc12)c1cccc(-c2ccccc2)c1; test: (§5) Uncompetitive inhibition of recombinant cN-II (unknown origin) assessed as substrate Kcat using varying level of IMP as substrate by HPLC method based Lineweaver-Burk plot analysis; method in brief: as §2
[11] = compound: CCOP(=O)(O)Cn1cnc(-c2cccc(-c3cccc(C(=O)Nc4ncnc5nc[nH]c45)c3)c2)c1; test: as §5; method in brief: as §2
[12] = compound: O=C(O)Cn1cnc2c(NC(=O)c3cccc(-c4ccccc4)c3)ncnc21; test: as §5; method in brief: as §2
[13] = compound: O=C(Nc1ncnc2[nH]cnc12)c1cccc(-c2ccccc2)c1; test: (§6) Noncompetitive inhibition of recombinant cN-II (unknown origin) assessed as substrate Kcat using varying level of IMP as substrate by HPLC method based Lineweaver-Burk plot analysis; method in brief: as §2
[14] = compound: CCOP(=O)(O)Cn1cnc(-c2cccc(-c3cccc(C(=O)Nc4ncnc5nc[nH]c45)c3)c2)c1; test: as §6; method in brief: as §2
[15] = compound: O=C(O)Cn1cnc2c(NC(=O)c3cccc(-c4ccccc4)c3)ncnc21; test: as §6; method in brief: as §2
[16] = compound: O=C(Nc1ncnc2[nH]cnc12)c1cccc(-c2ccccc2)c1; test: (§7) Mixed type inhibition of recombinant cN-II (unknown origin) assessed as substrate Km using varying level of IMP as substrate by HPLC method based Lineweaver-Burk plot analysis; method in brief: as §2
[17] = compound: CCOP(=O)(O)Cn1cnc(-c2cccc(-c3cccc(C(=O)Nc4ncnc5nc[nH]c45)c3)c2)c1; test: as §7; method in brief: as §2
[18] = compound: O=C(O)Cn1cnc2c(NC(=O)c3cccc(-c4ccccc4)c3)ncnc21; test: as §7; method in brief: as §2
[19] = compound: O=C(Nc1ncnc2[nH]cnc12)c1cccc(-c2ccccc2)c1; test: (§8) Competitive inhibition of recombinant cN-II (unknown origin) using varying level of IMP as substrate assessed as substrate Kcat by HPLC method based Lineweaver-Burk plot analysis; method in brief: as §2
[20] = compound: CCOP(=O)(O)Cn1cnc(-c2cccc(-c3cccc(C(=O)Nc4ncnc5nc[nH]c45)c3)c2)c1; test: as §8; method in brief: as §2
[21] = compound: O=C(O)Cn1cnc2c(NC(=O)c3cccc(-c4ccccc4)c3)ncnc21; test: as §8; method in brief: as §2
[22] = compound: O=C(Nc1ncnc2[nH]cnc12)c1cccc(-c2ccccc2)c1; test: (§9) Competitive inhibition of recombinant cN-II (unknown origin) using varying level of IMP as substrate assessed as substrate Km by HPLC method based Lineweaver-Burk plot analysis; method in brief: as §2
[23] = compound: CCOP(=O)(O)Cn1cnc(-c2cccc(-c3cccc(C(=O)Nc4ncnc5nc[nH]c45)c3)c2)c1; test: as §9; method in brief: as §2
[24] = compound: O=C(O)Cn1cnc2c(NC(=O)c3cccc(-c4ccccc4)c3)ncnc21; test: as §9; method in brief: as §2

B1: 5'-nucleotidase (Homo sapiens), P21589 (protein)
chain: MCPRAARAPATLLLALGAVLWPAAGAWELTILHTNDVHSRLEQTSEDSSKCVNASRCMGGVARLFTKVQQIRRAEPNVLLLDAGDQYQGTIWFTVYKGAEVAHFMNALRYDAMALGNHEFDNGVEGLIEPLLKEAKFPILSANIKAKGPLASQISGLYLPYKVLPVGDEVVGIVGYTSKETPFLSNPGTNLVFEDEITALQPEVDKLKTLNVNKIIALGHSGFEMDKLIAQKVRGVDVVVGGHSNTFLYTGNPPSKEVPAGKYPFIVTSDDGRKVPVVQAYAFGKYLGYLKIEFDERGNVISSHGNPILLNSSIPEDPSIKADINKWRIKLDNYSTQELGKTIVYLDGSSQSCRFRECNMGNLICDAMINNNLRHTDEMFWNHVSMCILNGGGIRSPIDERNNGTITWENLAAVLPFGGTFDLVQLKGSTLKKAFEHSVHRYGQSTGEFLQVGGIHVVYDLSRKPGDRVVKLDVLCTKCRVPSYDPLKMDEVYKVILPNFLANGGDGFQMIKDELLRHDSGDQDINVVSTYISKMKVIYPAVEGRIKFSTGSHCHGSFSLIFLSLWAVIFVLYQ
Km [1]: 584 µM | Km [2]: 870 µM | Km [3]: 999 µM | kcat [4]: 49.3 s⁻¹ | kcat [5]: 44.8 s⁻¹ | kcat [6]: 44.1 s⁻¹ | Km [7]: 657 µM | Km [8]: 982 µM | Km [9]: 1150 µM | kcat [10]: 52.9 s⁻¹ | kcat [11]: 51.2 s⁻¹ | kcat [12]: 49.4 s⁻¹ | kcat [13]: 51.4 s⁻¹ | kcat [14]: 49.7 s⁻¹ | kcat [15]: 47.4 s⁻¹ | Km [16]: 506 µM | Km [17]: 639 µM | Km [18]: 821 µM | kcat [19]: 47.3 s⁻¹ | kcat [20]: 45.1 s⁻¹ | kcat [21]: 43.3 s⁻¹ | Km [22]: 448 µM | Km [23]: 651 µM | Km [24]: 790 µM
